Results taken from patent publication US12458538B2, “Functional wound healing dressings” (Ambient Biosciences, Inc., priority 2018, dated 2025).

Conditions: thicker PCL layers (1, 15 or 30 min electrospinning); PBS; free BSA in supernatant

bovine serum albumin [BSA]
dissolution rate of BSA from the dissolvable PEO layer: reduced the dissolution rate
